The text below walks through data of patent US4950647A, “T cell immunopotentiator” (Nucleic Acid Research Institute, priority 1988, dated 1990).

Data set [1] relates to cytotoxic T cells. As to conditions: some AIDS patients and patients with AIDS related complex; cited from earlier work.
Data set [2] concerns human lymphocytes (peripheral blood mononuclear cells). Briefly: Phytohemagglutinin (PHA) induced lymphocyte proliferation. The class given is cell-based. The protocol: (§1) Peripheral blood mononuclear cells were isolated from heparinized peripheral blood of normal healthy donors as described in Sharma, B. and S. Gupta, "Antigen-specific primary cytotoxic T lymphocyte response in acquired immune deficiency syndrome (AIDS) and AIDS related complex", Clin. Exp. Immunol., 62:296, 1985. Briefly, blood was diluted 1:1 with Hanks balanced salt solution (HBSS). Peripheral blood mononuclear cells were separated on a Ficoll-Hypaque gradient. The peripheral blood mononuclear cells recovered from the interface were washed three times with HBSS and resuspended in RPMI-1640 containing 100 U/ml penicillin, 100 μg/ml streptomycin 2mM L-glutamine (GIBCO, Grand Island, N.Y.), and 10% heat-inactivated pooled A serum (Irvine Scientific, Irvine, Calif.), hereafter referred as complete medium (CM).
The ability of the compound 6-amino-(2-deoxy-α-D-erythropentofuranosyl)-imidazo[4,5,-C]pyridin-4-one to modulate lymphocyte response to plant mitogens was determined by the modified procedure of Sharma, B., O. Kohashi, M. R. Mickey, and P. T. Terasaki, "Effect of water soluble adjuvants on in vitro lymphocyte immunization", Cancer Res. 35:666, 1975. Peripheral blood mononuclear cells were cultured for 72-96 hr with phytohemagglutinin (Difco, Detroit, Mich.), Concanavalin A (Calbiochem, Calif.) or Pokeweed mitogen (GIBCO, Grand Island, N.Y.) in the presence and absence of 6-amino-(2-deoxy-α-D-erythro-pentofuranosyl)-imidazo[4,5,-C]pyridin- 4-one. The culture were set up in quadruplicate and pulsed with [^3 H]-thymidine for 16 hr and the [^3 H] thymidine incorporation was determined.
Lymphocytes from different donors where incubated with various concentration of phytohemagglutinin in absence and presence of 6-amino-(2-deoxy-α-D-erythro-pentofuranoxyl)imidazo-[4,5,-C]pyridin- 4-one.
[…] Lymphocyte proliferation was determined by ^3 H-thymidine incorporation.

In data set [3] the test system is human mixed lymphocyte culture. The experiment in a line: Mixed lymphocyte response / culture (alloantigens). In kind it is cell-based. The note with it: A + B. The protocol: as §1
Peripheral blood mononuclear cells (1×10^5 /0.2 ml/well) from donor-A were cultured together with different numbers of peripheral blood mononuclear cells ([…]) of peripheral blood mononuclear cells from the other donor for 96 hr as previously described above for the lymphocyte response to plant mitogens. Cultures were pulsed with [^3 H]-thymidinefor additional 16 hrs.
The maximal increase of 91% is seen in those experiments where allogeneic peripheral blood mononuclear cells.

Where [4] appears, read: A + PHA (0.125 μg), rIL-2 5 units.
The mark [5] stands for this setting: A + PHA (0.125 μg), rIL-2 10 units.

Regarding “interleukin-2: interleukin-2 (literature)”, the “restoration of depressed cytotoxic T cell function” value in data set [1] is given as “could restore depressed cytotoxic T cell function”.

For “rIL-2: Recombinant Interleukin-2 (rIL-2)”, the 3H-thymidine incorporation in data set [2] (setting [4]) is recorded as 95,849 ± 9225 CPM; in data set [2] (setting [5]) it was 87,707 ± 3989 CPM; in data set [2] (A + PHA (1 μg), rIL-2 2 units), 109,587 ± 9210 CPM; in data set [2] (A + PHA (1 μg), rIL-2 10 units) it was 124,464 ± 9761 CPM; in data set [3] (rIL-2 2 units), 19,413 ± 2623 CPM; in data set [3] (rIL-2 5 units) it was 22,451 ± 2979 CPM. Further, the 3H-thymidine incorporation in data set [3] (rIL-2 (1O) units) is given as 26,690 ± 1962 CPM. Further, the “% Potentiation” value in data set [2] (setting [4]) amounted to 645%; in data set [2] (setting [5]), 582%; in data set [2] (A + PHA (1 μg), rIL-2 2 units), 23%; in data set [2] (A + PHA (1 μg), rIL-2 10 units), 45%; in data set [3] (rIL-2 2 units), 46%; in data set [3] (rIL-2 5 units) it was 68%. In addition, in data set [3] (rIL-2 (1O) units), the “% Potentiation” value amounted to 100%.
